Literature values, collected in patent publication EP0408284B1, “Amylin for treatment of bone disorders” (AMYLIN PHARMACEUTICALS, INC., priority 1989, dated 1996).

Conditions: cited from earlier work

In the case of “human calcitonin gene-related peptide-α (ACDTATCVTHRLAGLLSRSGGVVKNNFVPTNVGSKAF; Calcitonin gene-related peptide 1 C-terminal amide; UniProt P06881 83-119, looked up) [CGRP, neurotransmitter, alternative splice product of the α-calcitonin gene]”, the “effect on plasma calcium” value (rabbit and chick, higher doses) is given as “parathyroid hormone-like hypercalcemic effect” and the “effect on plasma calcium” value (rabbits, lower doses) is given as “hypocalcaemic”.

Where two headings read alike, the source gives them in different places.
